Experiments:
in vivo [1] = settings: mouse, po
in vivo [2] = settings: rat, po

For `Cc1ccc(C(=O)c2ccc(CC(=O)O)n2C)cc1` [Tolmetin Na.2H2 O, 1-methyl-5-p-toluoylpyrrole-2-acetic acid, reference compound], the LD50 (in vivo [1]) was 899 mg/kg and the LD50 (in vivo [2]) was 914 mg/kg.

— US4882349A, “Pyrrolacetic amides having antiinflammatory activity” (priority 1982, dated 1989)
